# PubChem BioAssay AID585 (National Center for Advancing Translational Sciences (NCATS), 2007)
# By UniProt entry, the sequences of proteins in these tests, tags left out.
# UniProt P00811, whole entry: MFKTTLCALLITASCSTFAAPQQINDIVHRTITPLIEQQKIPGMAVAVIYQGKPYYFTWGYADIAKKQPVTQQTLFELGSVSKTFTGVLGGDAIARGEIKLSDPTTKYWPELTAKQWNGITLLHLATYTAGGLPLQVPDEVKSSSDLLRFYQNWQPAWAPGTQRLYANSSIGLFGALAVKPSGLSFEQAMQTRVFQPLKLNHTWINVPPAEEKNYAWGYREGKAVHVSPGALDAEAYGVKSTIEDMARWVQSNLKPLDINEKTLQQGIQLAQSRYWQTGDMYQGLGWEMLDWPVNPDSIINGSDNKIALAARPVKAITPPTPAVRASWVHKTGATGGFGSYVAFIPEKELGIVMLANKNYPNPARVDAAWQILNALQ
# Only a part is listed here, and it is no random draw. Activity calls are given as the source filed them. Calls come from the whole dose curve.
# Biological target: Beta-lactamase (Escherichia coli (strain K12)) (UniProt P00811)
# Experiment: Promiscuous and Specific Inhibitors of AmpC Beta-Lactamase (assay without detergent); note: % of control where 0% means no effect
# Conditions: AmpC nitrocefin hydrolysis, absorbance 480 nm, no detergent; at 28.7 µM (top of the series)
# Procedure: NIH Molecular Libraries Screening Centers Network [MLSCN]
# NIH Chemical Genomics Center [NCGC]
# PI Name: Shoichet, Brian K.
# This aggregation profiling approach exploits the sensitivity of aggregate formation to detergent. Inhibition of b-lactamase is measured in the presence and absence of 0.01% Triton X-100. See Pubchem assay "Promiscuous and Specific Inhibitors of AmpC Beta-Lactamase (assay with detergent)" for related screen. Compounds that inhibit only in the absence of detergent are considered likely promiscuous aggregators.
# A screen of 1,030 compounds was performed in Brian Shoichet's lab in 96-well format. AmpC activity was measured by following the absorbance at 480 nm. Nitrocefin is a chromogenic substrate: while nitrocefin is yellow (lmax 390 nm), the product of its hydrolysis is red (lmax 486 nm, 17,000 M-1). AmpC beta lactamase was provided by Brian Shoichet and Brian Feng, UCSF.
# NCGC Assay Protocol Summary:
# 20 mM phosphate buffer, pH 7.0
# Triton X-100: No Detergent screen: 0.0001%, Detergent screen: 0.01%.
# Buffer in columns 3 and 4 as negative control (no enzyme).
# 5.3 nM AmpC in columns 1, 2, 5-48. […]
# Six uL of reagents were dispensed to 1536-well Greiner black clear bottom plates. […] The plates were immediately transferred to and read every 20 seconds for 4 min on ViewLux (Perkin-Elmer) High-throughput CCD imager using 480 nm absorbance protocol. […]
row,Structure (SMILES),"activity change, negative = inhibition"
1,O=[N+]([O-])C(Cl)(Cl)Cl,inactive: -4.4%
2,CN(CCCl)CCCl,inactive: -5.8%
